This note sets out measurements from US20100247590A1, “Peptide-Based Systems For Delivery Of Cosmetic Agents” (JOHNSON & JOHNSON, priority 2009, published 2010).

The assay in a line: Visual color assessment of hair treated with peptide then streptavidin-coated iron oxide beads (sequential coloring). The note with it: for color measurement (0-5 color scale): 500 nm particles.

With HCP5-GGSGPGSGG-HCP5-K [(HCP5)2-biotin], the “color scale score (0-5)” value (Table 16, streptavidin-coated iron oxide beads, sequential coloring method) turned out to be 4. The “color measurement (0-5 color scale)” value is 4 (Table 17, initial, before washing with water) and 2 (Table 19, after 0.25% SLES wash).
